Source: US6426356B1, “Imidazoethyl thiophenes” (Ortho-McNeil Pharmaceutical, Inc., priority 1998, dated 2002)

Sequences of proteins named here, by UniProt entry; tags and fusion partners are left off.
UniProt P22909, whole entry: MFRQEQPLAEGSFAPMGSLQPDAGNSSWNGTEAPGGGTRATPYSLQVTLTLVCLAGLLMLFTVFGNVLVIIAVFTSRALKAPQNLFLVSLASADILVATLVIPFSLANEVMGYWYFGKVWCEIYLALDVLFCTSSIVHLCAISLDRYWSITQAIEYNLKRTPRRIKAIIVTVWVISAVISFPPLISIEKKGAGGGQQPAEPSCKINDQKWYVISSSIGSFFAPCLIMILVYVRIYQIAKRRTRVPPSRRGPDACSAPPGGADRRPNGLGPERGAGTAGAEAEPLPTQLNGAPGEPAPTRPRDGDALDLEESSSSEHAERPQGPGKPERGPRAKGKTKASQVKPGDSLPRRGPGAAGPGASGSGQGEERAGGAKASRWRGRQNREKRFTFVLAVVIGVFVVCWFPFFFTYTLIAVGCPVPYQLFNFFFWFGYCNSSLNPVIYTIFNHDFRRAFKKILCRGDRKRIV

Tests used:
[1] = biological target: Alpha-2D Adrenergic Receptor (Rattus norvegicus, UniProt P22909); test: Alpha-2D adrenergic receptor binding assay (3H-para-aminoclonidine, rat cortex synaptic membranes); conditions: read-out: α2D Ki
[2] = test system: mouse acetylcholine bromide-induced abdominal constriction; test: Mouse acetylcholine bromide-induced abdominal constriction assay (MAIT); conditions: sc; % inhibition of abdominal constriction; dose not given

C(=Cc1c[nH]cn1)c1ccsc1 gave a Ki [1] of 9.4 nM and an MAIT [2] of 13 sc.
